Screening results as filed in PubChem BioAssay.
ARNT-TACC3 inh: disrupts binding between human ARNT and TACC3; inhibition, % at 9.99 µM; AID 623870; Q9Y6A5; AlphaScreen His-ARNT PAS-B/GST-TACC3 binding, luminescence; TACC3 fragment carries E629A point mutation; actives 0.66% (n = 390,000);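 active = mean inhibition of replicates at least 50% and at least half of replicates each reaching 50%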;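 note: 0% = complete ARNT plus TACC3 wells and 100% = ARNT alone without TACC3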
CAL PDZ FP-1: human CAL PDZ-peptide interaction inhibition. Q9HD26. purified CAL PDZ, TMR-peptide fluorescence polarization, 1 h. actives 0.02% (n = 330,000). AID 504414. inhibition, % at 20 µM;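 active = highest replicate inhibition of at least 40%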;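 note: plate controls were DMSO neutral control wells for no effect and unlabeled competitor peptide control wells for full effect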
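material = purified tagged CAL PDZ domain construct (CerCALP) | compound dosing = 20 µM, one dose | times = 1 h at RT | measured by = fluorescence polarization from S- and P-plane intensities, G-factor corrected | read-out = inhibition from polarization loss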
CAL PDZ FP-2: blocks peptide binding to the human CAL PDZ domain | purified CAL PDZ, TMR-peptide fluorescence polarization, 1 h | AID 602252 | inhibition, % at 24.9 µM | actives 0.92% (n = 300,000) | Q9HD26;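 active = mean inhibition of at least 30% with at least half of replicates also reaching 30%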;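 note: 0% = DMSO neutral control and 100% = excess unlabeled competitor peptide PRC23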
PglD inh: inhibitors of Campylobacter jejuni PglD acetyltransferase. inhibition, % at 12.5 µM. purified PglD enzyme, DTNB colorimetric CoA detection. actives 0.098% (n = 360,000); in the data active = inhibition above about 16%, passing the limit was not always enough
Vif inh: HIV Vif inhibition. HEK293T cells, Vif self-association by quenched fluorescence, imaging, 24 h. inhibition, % at 7.49 µM. actives 0.35% (n = 340,000); in the data active = inhibition above about 50%, passing the limit was not always enough
Yeast UUG start-1: modulators of start codon recognition fidelity in yeast. S. cerevisiae UUG-firefly luciferase reporter, luminescence/redox ratio. activity score, % at 18.7 µM. 0.13% of 350,000 active. AID 602363;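 active = replicate mean at a twofold rise or more, about +100% in these data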;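 also: firefly luciferase made from a UUG start codon reports start codon fidelity; reporter light over untreated wells divided by growth signal over untreated wells; some hits fall short of that in this replicate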
Yeast UUG start-2: alters UUG start codon use in yeast; activation, % at 38 µM; 540 tested, under 10 active; shares compounds with Yeast UUG start-1; S. cerevisiae UUG-start firefly luciferase, luminescence, 4 h; 100% means double the DMSO signal;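 active = signal increase whose fitted curve reaches an absolute level of 40 at a concentration under 10 µM; inactive = activity opposite to the expected increase, or the rest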
* = called active by the depositor; i = inactive; · = not tested or not shown. The list is not random: actives were taken first. Their share in the collection is about 1.6%.

item	smiles	ARNT-TACC3 inh	CAL PDZ FP-1	CAL PDZ FP-2	PglD inh
1	CCOC(=O)C1CCN(C(=O)Cn2cc(C(=O)C3CC3)c3ccccc32)CC1	-10	-1	-1	0
2	O=C(c1cn(CC(=O)N2CCCCC2)c2ccccc12)C1CC1	-22	-1	1	11
3	O=C(Cn1cc(C(=O)C2CC2)c2ccccc21)NCC1CCCO1 (stereo not drawn)	-2	0	-2	-4
4	COC(=O)c1cn(CC(=O)NC2CCCCC2)c2ccccc12	1	-2	·	·
5	O=C(Cn1cc(C(=O)C2CC2)c2ccccc21)NC1CCCC1	-4	-1	1	-2
6	C[C@H]1CCCCO[C@H](CN(C)C(=O)Cc2ccccc2)[C@@H](C)CN([C@@H](C)CO)C(=O)c2cc(NC(=O)Cc3ccccc3)ccc2O1	-3	·	·	3
7	CCN(CC)CCNC(=O)Cc1nn(Cc2ccccc2)c(=O)c2ccccc12	2	-1	-4	-4
8	CO[C@@H]1CN(C)C(=O)c2ccc(NC(C)=O)cc2OC[C@H](C)N(CC2CCCCC2)C[C@H]1C	5	·	·	-2
9	CCOc1cc(OCC)cc(C(=O)NC(=S)Nc2cccc(C(F)(F)F)c2)c1	·	0	-6	·
10	O=C(NC(=S)Nc1cccc(C(F)(F)F)c1)c1ccc2nonc2c1	·	·	·	2
11	COc1cc2c(C#N)c(N3CCc4ccccc4C3)nc(N)c2c(N)n1	-6	-1	-1	2
12	COc1cc2c(C#N)c(N3CCCCC3)nc(N)c2c(N)n1	·	-2	-1	7
13	Cc1noc(C)c1NC(=O)N[C@H]1CC[C@H](CCNC(=O)C2CCCC2)O[C@H]1CO	-8	·	·	3
14	Cc1noc(C)c1NC(=O)N1C[C@H](O)COC[C@@H]2O[C@H](CC(=O)NCC3CCCCC3)CC[C@H]21	-7	·	·	-5
15	C=CCN1C(=O)C2C(C(=O)NC)C3C=CC2(O3)C1C(=O)NCc1ccc(OC)cc1 (stereo not drawn)	-5	-2	-2	-7

item	Vif inh	Yeast UUG start-1	Yeast UUG start-2
1	-4	-9	11
2	8	-15	3
3	0	9	6
4	-5	·	·
5	-4	6	8
6	·	4	·
7	10	-18	-8
8	·	-6	·
9	·	·	·
10	-6	139*	-8
11	12	502*	-4
12	2	-17	·
13	·	-1	·
14	·	·	·
15	-4	15	·

3 compounds out of the list above, ordered by their value in CAL PDZ FP-2, lowest first:
nr | Structure | ARNT-TACC3 inh | CAL PDZ FP-1 | CAL PDZ FP-2 | PglD inh | Vif inh | Yeast UUG start-1 | Yeast UUG start-2
7 | CCN(CC)CCNC(=O)Cc1nn(Cc2ccccc2)c(=O)c2ccccc12 | 2 | -1 | -4 | -4 | 10 | -18 | -8
3 | O=C(Cn1cc(C(=O)C2CC2)c2ccccc21)NCC1CCCO1 (stereo not drawn) | -2 | 0 | -2 | -4 | 0 | 9 | 6
12 | COc1cc2c(C#N)c(N3CCCCC3)nc(N)c2c(N)n1 | · | -2 | -1 | 7 | 2 | -17 | ·

(more compounds)
item	smiles	ARNT-TACC3 inh	CAL PDZ FP-1	CAL PDZ FP-2	PglD inh
16	C=CCN1C(=O)C2C(C(=O)NCc3ccccc3)C3C=CC2(O3)C1C(=O)NC(C)(C)C (stereo not drawn)	9	0	-2	0
17	Cn1cnc(S(=O)(=O)N[C@@H]2C=C[C@H](CC(=O)NCC3CCCCC3)O[C@H]2CO)c1	0	·	·	-3
18	COCC(=O)Nc1ccc2c(c1)C(=O)N(C)C[C@@H](OC)[C@@H](C)CN(Cc1ccccc1F)[C@@H](C)CO2	-3	·	·	2
19	COCC(=O)Nc1ccc2c(c1)OC[C@@H](C)N(C(=O)COC)C[C@@H](C)[C@@H](OC)CN(C)C2=O	-21	·	·	-1
20	CO[C@@H]1CN(C)C(=O)c2ccc(NC(=O)c3ccccc3F)cc2OC[C@H](C)N(C(C)=O)C[C@@H]1C	14	·	·	3
21	CO[C@@H]1CN(C)C(=O)c2ccc(NC(=O)c3ccccc3F)cc2OC[C@@H](C)N(C(C)=O)C[C@@H]1C	-8	·	·	1
22	COCC(=O)Nc1ccc2c(c1)OC[C@H](C)N(C(=O)c1cnccn1)C[C@H](C)[C@H](OC)CN(C)C2=O	-15	·	·	2
23	COCC(=O)Nc1ccc2c(c1)OC[C@@H](C)N(C(=O)c1cnccn1)C[C@@H](C)[C@@H](OC)CN(C)C2=O	-11	·	·	0
24	CO[C@@H]1CN(C)C(=O)c2cc(NC(=O)C3CCOCC3)ccc2OC[C@@H](C)N(Cc2cccnc2)C[C@@H]1C	-2	·	·	4
25	Cc1noc(C)c1NC(=O)N(C)C[C@@H]1Oc2ccc(NC(=O)C3CC3)cc2CC(=O)N([C@@H](C)CO)C[C@H]1C	-4	·	·	-4
26	COc1ccc2oc(C(=O)N(C)Cc3ccc4c(c3)OCCO4)c(C)c2c1	-3	-2	1	-5

item	Vif inh	Yeast UUG start-1	Yeast UUG start-2
16	34	533*	-6
17	·	5	·
18	·	180*	i
19	·	197*	i
20	·	123*	i
21	·	2	·
22	·	17	·
23	·	156*	i
24	·	·	·
25	·	-2	·
26	0	22	·
